Assay: Antioxidant activity assessed as DPPH radical scavenging activity incubated for 30 mins under dark condition relative to vitamin C
Format: functional

Q: Which fold change (FC) does the source give for `CC(=O)Oc1ccccc1C(=O)NCCC[Se]C#N` here?
A: 0.6

Q: With `CC(C)Cc1ccc(C(C)C(=O)NCCC[Se]C#N)cc1` (stereo not drawn) as the molecule, how does the fold change (FC) read?
A: 0.7

Q: For `C[C@H](C(=O)NCCC[Se]C(F)(F)F)c1cccc(C(=O)c2ccccc2)c1`, which fold change (FC) is on record?
A: 0.5

Q: For `COc1ccc2cc([C@H](C)C(=O)NCCC[Se]C#N)ccc2c1`, which fold change (FC) is on record?
A: 0.2

Q: Which fold change (FC) does the source give for `CC1=C(CC(=O)NCCC[Se]C#N)c2cc(F)ccc2/C1=C\c1ccc([S+](C)[O-])cc1` (stereo not drawn) here?
A: 0.2

Q: Which fold change (FC) does the source give for `CC(C)Cc1ccc(C(C)C(=O)NCCC[Se]C(F)(F)F)cc1` (stereo not drawn) here?
A: 0.7

Q: Which fold change (FC) does the source give for `CCc1cccc2c3c([nH]c12)C(CC)(CC(=O)NCCC[Se]C(F)(F)F)OCC3` (stereo not drawn) here?
A: 0.3

Q: Which fold change (FC) does the source give for `Cc1cccc(Nc2ccccc2C(=O)NCCC[Se]C#N)c1C` here?
A: 0.3

Q: Which fold change (FC) does the source give for `CC(C(=O)NCCC[Se]C#N)c1ccc(-c2ccccc2)c(F)c1` (stereo not drawn) here?
A: 0.2

Q: Which fold change (FC) does the source give for `CC1=C(CC(=O)NCCC[Se]C(F)(F)F)c2cc(F)ccc2/C1=C\c1ccc([S+](C)[O-])cc1` (stereo not drawn) here?
A: 0.4

Q: Which fold change (FC) does the source give for `CCc1cccc2c3c([nH]c12)C(CC)(CC(=O)NCCC[Se]C#N)OCC3` (stereo not drawn) here?
A: 0.3

Q: For `C[C@H](C(=O)NCCC[Se]C#N)c1cccc(C(=O)c2ccccc2)c1`, which fold change (FC) is on record?
A: 0.3

Q: For `Cc1cccc(Nc2ccccc2C(=O)NCCC[Se]C(F)(F)F)c1C`, which fold change (FC) is on record?
A: 0.4

Q: For `COc1ccc2cc([C@H](C)C(=O)NCCC[Se]C(F)(F)F)ccc2c1`, which fold change (FC) is on record?
A: 0.4

Q: With `CC(=O)Oc1ccccc1C(=O)NCCC[Se]C(F)(F)F` as the molecule, how does the fold change (FC) read?
A: 0.8

Q: With `COc1ccc2c(c1)c(CC(=O)NCCC[Se]C(F)(F)F)c(C)n2C(=O)c1ccc(Cl)cc1` as the molecule, how does the fold change (FC) read?
A: 0.3

Q: Which fold change (FC) does the source give for `CC(C(=O)NCCC[Se]C(F)(F)F)c1ccc(-c2ccccc2)c(F)c1` (stereo not drawn) here?
A: 0.4

Q: For `COc1ccc2c(c1)c(CC(=O)NCCC[Se]C#N)c(C)n2C(=O)c1ccc(Cl)cc1`, which fold change (FC) is on record?
A: 0.5
